Laboratory results as given in ChEMBL document CHEMBL6115048, “Uncovering α-Selectivity for Liver X Receptor Agonists for Lipotoxic Cancer Therapies” (J Med Chem, 2025).

Experiment: Selectivity ratio of EC50 for agonist activity at LXRbeta (unknown origin) transfected in NR1H3 knockout human Hep3B cells co-transfected with LXRE-GFP to EC50 for agonist activity at LXRalpha (unknown origin) transfected in NR1H2 knockout human Hep3B cells co-transfected with LXRE-GFP measured after 48 hrs

SMILES: O=C1C(Nc2ccc(N3CCCCC3)cc2)=C(c2ccccc2)C(=O)N1Cc1ccccc1
- Ratio EC50: 23
